Results as given in patent publication US20250186602A1, “HUMANIZED ANTIBODY THAT BONDS TO EVA1 PROTEIN OR FUNCTIONAL FRAGMENT THEREOF, ANTIBODY-DRUG CONJUGATE AND CHIMERIC ANTIGEN RECEPTOR” (CURED INC., priority 2022, published 2025).

System: Human glioma stem cells (hGIC)
Assay: Cytotoxicity assay of B2E5-ADC against glioma (MTT)
Assay type: cell-based
Details: hGIC E6, hGIC E16, 3 days
Description: Human glioma stem cells (hGIC) were inoculated in a 96-well plate in an amount of 1000 cells per well. Next, B2E5-H2-L2, B2E5-ADC, or Kadcyla (trastuzumab emtansine) serially diluted two-fold was added in an amount of 100 μl/well, followed by culturing for 3 days in a CO2 incubator at 37° C. Then, 5 μl of MTT (5 mg/ml, Wako Pure Chemical) was added to each well, followed by culturing for 2 hours in a CO2 incubator at 37° C. After the culture liquid was discarded, 90 μl of DMSO was added, and after the cells were dissolved, the absorbance (570 nm) was measured by using a benchmark (Bio-Rad).
Note that as a positive control (100%), a measured value in a well in the absence of the antibody was used. In addition, as a negative control (0%), a measured value obtained by adding 5 μl of 1% TritonX100 to a well in the absence of the antibody was used.

Kadcyla: Kadcyla (trastuzumab emtansine) [reference compound]
cytotoxic activity against hGIC: no cytotoxic activity
